Our source for the EC50 values is US20230357447A1 (JANUX THERAPEUTICS, published 2023).

The assay concerns the target T1, CD28 antigen (biotinylated, captured on neutravidin coated plates) (UniProt P10747, in part, biotinylated (site not stated)).
T1 construct: also called cognate antigen, CD28
In words: ELISA: biotinylated CD28 captured on neutravidin plate, antibody titrated, HRP secondary antibody. (In general: ELISA stands for enzyme-linked immunosorbent assay.)

B1: anti-CD28 scFv (SEQ ID NO: 9) (scFv)
scFv: QVQLVQSGAEVKKPGASVKVSCKASGYTFTSYYIHWVRQAPGQGLEWIGSIYPGNVNTNYNEKFKDRATLTVDTSISTAYMELSRLRSDDTAVYFCTRSHYGLDWNFDVWGQGTTVTVSSGGGGSGGGGSGGGGSDIQMTQSPSSLSASVGDRVTITCHASQNIYVWLNWYQQKPGKAPKLLIYKASNLHTGVPSRFSGSGSGTDFTLTISSLQPEDFATYYCQQGQTYPYTFGGGTKVEIK
notes: also called Anti-CD28 scFv (VH-linker 1-VL)
As a reminder, the EC50 is the midpoint of the concentration-response curve. Read a high EC50 as a less potent agent. The molecule B1 showed an EC50 of 1.95 nM.
